The data set in a line: Hygroscopicity, DVS sorption/desorption isotherms. The class given is physicochemical. The conditions noted are these: RH 85.0%, 25° C.

For `Cc1c(C(=O)Nc2ccc(N3C[C@@H](C)O[C@@H](C)C3)nc2)cccc1-c1ccc(OC(F)(F)F)cc1.O=S(=O)(O)O` [Sulfate, mono], the “DVS Sorp. Weight % chg.” value was determined as 1.835%.

(Values after patent publication US8063043B2, “Salts of N-[6-cis-2,6-dimethylmorpholin-4-yl)pyridine-3-yl]-2-methyl-4′-(trifluoromethoxy)[1,1′-biphenyl]-3-carboxamide” (Novartis AG, priority 2008, dated 2011).)
